# The entries are a selection whose mix differs from that of the whole data set. Activity calls are given as the source filed them.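 The calls were made as follows: active = inhibition above the mean of all tested compounds plus 3 SD (cut at about 24% in these data); inactive = the rest.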
# By UniProt entry, the sequences of proteins in these tests, tags left out. Where a name states a change or a piece, a line headed by the entry shows the natural chain unless it says otherwise.
# UniProt P68402: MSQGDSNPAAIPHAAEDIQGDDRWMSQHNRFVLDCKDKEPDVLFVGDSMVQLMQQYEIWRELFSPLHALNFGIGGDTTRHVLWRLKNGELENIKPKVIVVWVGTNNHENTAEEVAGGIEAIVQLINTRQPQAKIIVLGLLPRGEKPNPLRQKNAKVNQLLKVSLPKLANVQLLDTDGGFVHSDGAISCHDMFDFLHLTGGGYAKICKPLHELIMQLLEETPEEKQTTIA
# Biological target: Platelet-activating factor acetylhydrolase IB subunit alpha2 (Homo sapiens) (UniProt P68402)
# Assay: inhibition of PAF acetylhydrolase 1b subunit 2 – biochemical, fluorescence polarization, human, primary screen (AID 492953);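 also: 0% = enzyme with DMSO and 100% = wells lacking PAFAH1B2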
# Settings: recombinant PAFAH1B2, FP-rhodamine activity probe, at 3.39 µM, hits give high values
row,SMILES,inhibition
1,CCN(N=Nc1nonc1N)c1nonc1N,inactive: 1.37%
2,Nc1cccc2ccc([As](=O)(O)O)cc12,inactive: 16%
3,CCOP(=O)(Nc1ccccc1)OCC,inactive: 2.11%
4,Cc1cc(SC(NC(=O)c2ccc(F)cc2)C(Cl)(Cl)Cl)ncn1 (centres undefined),inactive: 8.19%
5,CN(C(=O)Cc1ccc(Cl)c(Cl)c1)[C@H]1CCCC[C@@H]1N1CCCC1,inactive: -8.48%
6,Cc1ccc(NP(=O)(Oc2ccccc2F)Oc2ccccc2F)nc1,inactive: 9.65%
7,O=C(O)c1ccccc1[As](=O)(O)O,inactive: 0.96%
8,CC(=O)Nc1ccc([As](=O)(O)O)cc1,inactive: 9.71%
9,CCCC1OP(N)(=O)OCC1CC (centres undefined),inactive: 1.05%
10,O=P(Nc1nc2ccc(Cl)cc2s1)(c1ccccc1)c1ccccc1,inactive: 5.44%
11,CC(C)CC(=O)NC(Sc1ccc(Cl)cc1)C(Cl)(Cl)Cl (centres undefined),inactive: 3.23%
12,Nc1cc(N)c2nonc2c1[N+](=O)[O-],inactive: -1.04%
13,Oc1ccccc1CNc1ccccn1,inactive: 0.02%
14,O=C(NC(Sc1ccncn1)C(Cl)(Cl)Cl)c1ccccc1 (centres undefined),inactive: -1.97%
15,COc1ccccc1OP(=O)(Nc1ccc(C)cn1)Oc1ccccc1OC,inactive: 0.99%
16,Clc1ccc(Cl)c(NC2=NCC(CBr)S2)c1 (centres undefined),inactive: 4.46%
17,CN1CCCC(OC(=O)C(c2ccccc2)c2ccccc2)C1 (centres undefined),inactive: 2.33%
18,NC(=O)c1cc([N+](=O)[O-])cc([N+](=O)[O-])c1N,inactive: -3.74%
19,CN(C(=O)Cc1ccc(Cl)c(Cl)c1)[C@H]1CCCC[C@H]1N1CCCC1,inactive: -4.59%
20,Cc1ccc(N/C(=N/P(=O)(N2CCOCC2)N2CCOCC2)N2CCOCC2)cc1,inactive: -3.98%

row,SMILES,inhibition
1,CC(=O)Nc1ccc([As](=O)(O)O)c(O)c1,inactive: 5.14%
2,CC(=O)Nc1ccc(Oc2c([N+](=O)[O-])cc([N+](=O)[O-])cc2[N+](=O)[O-])cc1,inactive: 8.18%
3,N#C/C(=C\c1ccc(N(CCBr)CCBr)cc1)C(N)=O,inactive: 11.3%
4,CC(=O)c1ccc(N2CC2c2ccncc2)cc1 (centres undefined),inactive: 2.2%
5,COC(=O)C1(C)COP(=O)(NCc2ccccc2)OC1 (centres undefined),inactive: 2.44%
6,Cc1ccccc1CN(C)C(=O)COC(=O)C(O)(c1ccccc1)c1ccccc1,inactive: 3.83%
7,C[C@@H]1C=CCP(=O)(Oc2ccccc2)O1 (some centres undefined),inactive: -3.19%
8,C[C@H]1OP(=O)(Oc2ccccc2)C[C@@H]2O[C@@H]21 (some centres undefined),inactive: 5.21%
9,CCc1cc(O)c([N+](=O)[O-])c(C)c1[N+](=O)[O-],inactive: 14.1%
10,CC(C)(C)C(=O)NC(Sc1ccccc1)C(Cl)(Cl)Cl (centres undefined),inactive: 18.9%
11,O=P1(Nc2nc3ccc(Cl)cc3s2)COc2ccccc2O1 (centres undefined),inactive: 4.84%
12,CCOc1ccc(C2=NCC(CBr)S2)cc1 (centres undefined),inactive: 0.84%
13,Cc1ccccc1OP(=O)(Nc1ccccn1)Oc1ccccc1C,inactive: -2.29%
14,CC(NC(=O)COC(=O)C(O)(c1ccccc1)c1ccccc1)c1ccccc1 (centres undefined),inactive: 9.21%
15,CN(C)C(=O)Oc1noc2ccccc12,inactive: 1.89%
16,O=c1c2cc([N+](=O)[O-])ccc2[nH]c2c([N+](=O)[O-])cc([N+](=O)[O-])cc12,active: 29.1%
17,COC(=O)c1cc2c(s1)N=C(c1ccccc1)N(C)P2(=O)N1CCOCC1 (centres undefined),inactive: 2.23%
18,Cc1ccc(OP(=O)(Nc2ccccn2)Oc2ccc(C)cc2)cc1,inactive: 0.16%
19,CC(=O)NC(SC(=S)N(CC(C)C)CC(C)C)C(Cl)(Cl)Cl (centres undefined),inactive: 13.2%
20,O=C(OC1CN2CCC1CC2)c1ccccc1 (centres undefined),inactive: 1.27%

row,SMILES,inhibition
1,CCC(=O)N1C2C3N(C(=O)CC)C1C1N(C(=O)CC)C(C(N1C(=O)CC)N3C(=O)CC)N2C(=O)CC,inactive: -0.94%
2,O=P1(N(CCCl)CCCl)OCCC2CCCCN21 (centres undefined),inactive: 0.24%
3,O=C(NC1CCS(=O)(=O)C1)NP(=S)(Oc1ccccc1)Oc1ccccc1 (centres undefined),inactive: 14.5%
4,CCNC(=S)/N=C(\N)N[N+](=O)[O-],inactive: 5%
5,Nc1ccc([As](=O)(O)c2ccc([N+](=O)[O-])cc2)cc1,inactive: 6.78%
6,C(Cc1nn[nH]n1)Cc1nn[nH]n1,inactive: 5.16%
7,O=C(OC1CN2CCC1CC2)c1cccc(Cl)c1 (centres undefined),inactive: 3.12%
8,O=[N+]([O-])c1ncn(CCn2cnc([N+](=O)[O-])n2)n1,inactive: -0.97%
9,CC(=O)NC(SC(=S)N(C)C)C(Cl)(Cl)Cl (centres undefined),inactive: 3.22%
10,O=[N+]([O-])c1ccc(O)c(/C=N/Nc2ccc([N+](=O)[O-])cc2[N+](=O)[O-])c1,inactive: 3.72%
11,O=[As](O)(c1ccccc1)c1ccc(O)cc1,inactive: -2.06%
12,O=P(Nc1nc2ccccc2s1)(c1ccccc1)c1ccccc1,inactive: 3.28%
13,C[C@H]1OP(=O)(Oc2ccccc2)[C@H](O)[C@H](O)[C@H]1N=[N+]=[N-] (some centres undefined),inactive: -2.75%
14,COc1ccc(N)c([N+](=O)[O-])c1[N+](=O)[O-],inactive: -3.94%
15,CN(C)C1(CNC(=O)c2ccc(Cl)c(S(N)(=O)=O)c2)CCCCC1,inactive: 3.86%
16,O=P(Nc1ccccn1)(c1ccc(Br)cc1)c1ccc(Br)cc1,inactive: 0.7%
17,c1nnnn1CCn1cnnn1,inactive: 1.46%
18,O=P(Nc1nccs1)(c1ccccc1)c1ccccc1,inactive: 8.14%
19,CC(C)C(=O)NC(Sc1ccccc1)C(Cl)(Cl)Cl (centres undefined),inactive: 0.86%
